# Measured values reported in PMC8765293, “Inhibitor-Resistant Mutants Give Important Insights into Candida albicans ABC Transporter Cdr1 Substrate Specificity and Help Elucidate Efflux Pump Inhibition” (Antimicrobial Agents and Chemotherapy, 2022).
# By UniProt entry, the sequences of proteins in these tests, tags left out. Where a name states a change or a piece, a line headed by the entry shows the natural chain unless it says otherwise.
# UniProt Q5ANA3: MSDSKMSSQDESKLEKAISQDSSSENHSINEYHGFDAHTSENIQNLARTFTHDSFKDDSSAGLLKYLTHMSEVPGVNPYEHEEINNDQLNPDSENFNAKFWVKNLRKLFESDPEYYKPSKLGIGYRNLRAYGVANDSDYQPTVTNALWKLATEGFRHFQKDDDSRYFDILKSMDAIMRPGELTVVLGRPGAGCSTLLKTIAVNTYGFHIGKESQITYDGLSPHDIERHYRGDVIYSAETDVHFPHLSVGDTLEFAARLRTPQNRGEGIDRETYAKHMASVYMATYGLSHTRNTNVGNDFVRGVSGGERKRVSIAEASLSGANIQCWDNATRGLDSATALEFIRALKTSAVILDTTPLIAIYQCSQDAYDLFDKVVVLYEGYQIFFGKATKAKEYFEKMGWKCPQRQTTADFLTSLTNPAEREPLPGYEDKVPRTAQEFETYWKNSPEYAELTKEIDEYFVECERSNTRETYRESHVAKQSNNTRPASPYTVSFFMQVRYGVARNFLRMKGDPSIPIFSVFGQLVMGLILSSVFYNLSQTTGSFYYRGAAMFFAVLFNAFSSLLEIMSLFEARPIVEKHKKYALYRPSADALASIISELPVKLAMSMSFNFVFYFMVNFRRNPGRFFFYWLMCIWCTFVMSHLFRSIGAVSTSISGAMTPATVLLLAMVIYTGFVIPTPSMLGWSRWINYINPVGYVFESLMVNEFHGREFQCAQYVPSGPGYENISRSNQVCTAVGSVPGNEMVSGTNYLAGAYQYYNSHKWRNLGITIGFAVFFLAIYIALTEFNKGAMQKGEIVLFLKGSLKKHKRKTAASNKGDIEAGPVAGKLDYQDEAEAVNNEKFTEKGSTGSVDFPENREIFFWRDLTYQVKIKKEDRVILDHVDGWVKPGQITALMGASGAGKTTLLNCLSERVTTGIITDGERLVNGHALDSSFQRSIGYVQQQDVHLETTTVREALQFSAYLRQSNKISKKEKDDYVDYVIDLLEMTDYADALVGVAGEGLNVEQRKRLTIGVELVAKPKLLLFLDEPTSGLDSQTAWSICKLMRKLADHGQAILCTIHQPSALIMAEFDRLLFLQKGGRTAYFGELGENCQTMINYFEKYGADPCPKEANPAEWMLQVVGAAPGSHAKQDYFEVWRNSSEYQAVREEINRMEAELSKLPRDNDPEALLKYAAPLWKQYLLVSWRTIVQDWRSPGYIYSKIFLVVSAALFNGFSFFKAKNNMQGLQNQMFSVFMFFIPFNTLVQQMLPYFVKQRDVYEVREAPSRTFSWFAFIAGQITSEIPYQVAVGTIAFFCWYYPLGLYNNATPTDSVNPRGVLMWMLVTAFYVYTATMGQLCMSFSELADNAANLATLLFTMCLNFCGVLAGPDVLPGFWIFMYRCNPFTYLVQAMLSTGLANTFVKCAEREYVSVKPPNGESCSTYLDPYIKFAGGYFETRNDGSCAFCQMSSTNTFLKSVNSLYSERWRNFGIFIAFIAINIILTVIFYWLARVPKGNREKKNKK
# Target: wt Cdr1 ATPase activity (Candida albicans, UniProt Q5ANA3)
# Type: biochemical
substance,measurement,setting,value
beauvericin,IC50,"read-out: IC50 for inhibition of Cdr1 ATPase activity, from Fig. 4",240 nM
same,Ki,"read-out: Ki (Cdr1 ATPase activity), Dixon plot",80 ± 10 nM
